Measurements from patent publication US8048915B2, “Biologically active complex” (BioMas Ltd., priority 2001, dated 2011).

System: IL-2 receptors of human mononuclear cells
Assay: Induction of IL-2 receptors of human mononuclear cells (proliferation with recombinant IL-2, 3H thymidine uptake)
Assay type: cell-based
Settings: cell plus recombinant IL2, 1.5 × 10^−6 units

## recombinant IL2 (human) Biogen: recombinant human IL2 added to cells without test chemical
Test A
  proliferation, 3HT uptake: ^yCell plus recombinant IL2 (human) Biogen 1.5 × 10^−6 units −3260 counts per minute
Test B
  proliferation, 3HT uptake: Cell plus recombinant IL2 (human) Biogen 1.5 × 10^−6 units 6858. counts per minute
